Consider one compound from patent US11685744B2, “CDK inhibitors and their use as pharmaceuticals” (Prelude Therapeutics, Incorporated, priority 2020, dated 2023).

The chains behind the UniProt entries cited, without tags or fusion partners.
UniProt P11802, whole entry: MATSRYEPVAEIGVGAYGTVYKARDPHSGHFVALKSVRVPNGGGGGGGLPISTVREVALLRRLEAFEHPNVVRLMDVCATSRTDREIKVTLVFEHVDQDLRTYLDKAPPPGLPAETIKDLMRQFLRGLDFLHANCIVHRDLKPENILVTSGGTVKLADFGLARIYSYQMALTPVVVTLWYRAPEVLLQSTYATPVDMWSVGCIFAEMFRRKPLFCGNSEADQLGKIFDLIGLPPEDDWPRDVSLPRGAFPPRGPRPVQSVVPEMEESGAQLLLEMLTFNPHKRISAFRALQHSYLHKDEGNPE
UniProt P24385, whole entry partner: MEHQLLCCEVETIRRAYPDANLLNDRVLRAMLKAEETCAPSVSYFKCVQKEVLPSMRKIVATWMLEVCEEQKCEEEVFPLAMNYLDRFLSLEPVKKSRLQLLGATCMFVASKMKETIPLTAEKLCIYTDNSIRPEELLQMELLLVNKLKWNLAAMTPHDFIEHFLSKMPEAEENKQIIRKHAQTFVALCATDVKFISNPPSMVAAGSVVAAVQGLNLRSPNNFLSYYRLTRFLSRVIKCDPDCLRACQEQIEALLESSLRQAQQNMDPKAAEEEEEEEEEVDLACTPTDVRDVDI

The test concerns the target CDK4/Cyclin D1 (Homo sapiens (Human), UniProt P11802). Kind of test: CDK4/CyclinD1 enzymatic activity assay (TR-FRET). The conditions noted are these: read-out: CDK4_D1 IC50, ATP 2 mM, tested form: TFA. As to the method:
CDK4/CyclinD1 Enzymatic Activity Assay
The inhibitory activity of compounds was evaluated in vitro using TR-FRET assay with white 384-well low volume microplate (Greiner Bio-One). CDK4/Cyclin D1 catalyzed phosphorylation of peptide in the presence and absence of compounds was measured. IC50 determination. Recombinant protein complex CDK4/Cyclin D1, expressed from insect cell, was purchased from ProQinase. Testing compounds were dissolved in DMSO at 0.1 mM and tested in 9-dose IC50 mode. The reaction mixture was prepared by mixing CDK4/CyclinD1 (1 nM final), ULight-4E-BP1 (100 nM final, Perkinelmer, TRF0128-D), and ATP (2 mM final) in assay buffer (20 mM of HEPES pH 7.4, 1 mM of EGTA, 0.05% BSA, 0.005% Tween 20, and 1 mM TCEP). The compound of interest in DMSO was added to each well in 3-fold serial dilution by dispenser (TECAN D300E). After 20 minutes preincubation at room temperature, MgCl2 (10 mM final) was added to initiate the reaction. […] The reaction signal was measured by Envision multimode plate reader (PerkinElmer, 2102-0010). IC50 values were determined by fitting the data to the standard 4 parameters with Hill Slope using GraphPad Prism software.
For orientation: TR-FRET usually uses a lanthanide donor and a delayed reading to cut background.

By IC50 is commonly meant the concentration needed to halve the response being measured. For `Cc1c(-c2nc(Nc3ccc(C4CCN(C)CC4)cn3)ncc2F)sc2c(C(C)C)c[n+]([O-])cc12`, the IC50 fell in the range of 20 to 200 nM.
